Experimental data: patent US9187462B2, “Substituted quinazolines as serine/threonine kinase inhibitors” (Array BioPharma Inc., priority 2011, dated 2015)
Where two headings read alike, the source gives them in different places.

By UniProt entry, the sequences of proteins in these tests, tags left out. Residues count along the entry.
UniProt P28482, 8-360: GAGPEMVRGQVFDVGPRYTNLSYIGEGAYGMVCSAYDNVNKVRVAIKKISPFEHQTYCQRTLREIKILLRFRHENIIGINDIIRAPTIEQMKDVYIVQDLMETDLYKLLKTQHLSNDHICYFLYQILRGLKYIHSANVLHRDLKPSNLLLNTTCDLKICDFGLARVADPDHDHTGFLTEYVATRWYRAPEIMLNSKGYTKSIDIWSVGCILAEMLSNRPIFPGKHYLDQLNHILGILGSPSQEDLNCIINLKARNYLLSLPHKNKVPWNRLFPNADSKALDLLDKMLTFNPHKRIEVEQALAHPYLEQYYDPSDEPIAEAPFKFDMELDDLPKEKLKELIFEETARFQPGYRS

Target: human ERK-2 (Mitogen Activated Kinase 1) (Homo sapiens (Human), UniProt P28482)
Test: ERK-2 Enzymatic Assay
Type: biochemical
Settings: 5 nM ERK-2 enzyme, 25 μM ATP, Omnia peptide S/T17, single assay or mean of multiple assays
Procedure: Compounds were tested in an enzymatic assay using human ERK-2 (Mitogen Activated Kinase 1), recombinantly expressed as an N-terminal 6-His fusion protein in E. coli and corresponding to aa 8-360. The substrate used was the fluorescent Omnia peptide S/T17 (Invitrogen of Carlsbad, Calif.; Cat. KNZ1171C). Test compounds were diluted in DMSO in 3-fold serial dilutions at 100× final concentrations. […] The assay was run at ambient temperature in a white 384-well polypropylene plate (Nunc, Inc of Naperville, Ill.; Cat. 267462) collecting data every 50 seconds for approximately 30 minutes on an Envision plate reader (PerkinElmer, Inc. of Waltham, Mass.); Excitation 340 nm/Emission 495 nm. The data collected from each well was fit to a straight line and the resulting rates were used to calculate percent of control. Percent of control was plotted against compound concentration and IC50 values were determined using a four-parameter fit. Representative data is in TABLE I and TABLE II. The reported IC50 may be from a single assay or the mean of multiple assays.

[1] = read-out: IC50 (ERK-2 Enzymatic Assay), TABLE I

| SMILES | IC50 (read-out: IC50 (ERK-2 Enzymatic Assay), TABLE II) | IC50 [1] |
| --- | --- | --- |
| COc1ccc([C@H](NC(=O)c2cc(F)c3cnc(N[C@H]4CC[C@H](O)CC4)nc3c2)c2cnn(C)c2)cc1F [II-13] | 1.2 nM |  |
| COc1ccc([C@H](NC(=O)c2cc(F)c3cnc(N[C@H]4CC[C@H](O)CC4)nc3c2)c2cnn(C)c2)cc1F [I-69] |  | 1.2 nM |
| C[C@@H](CO)Nc1ncc2ccc(C(=O)N[C@@H](c3ccc(Cl)c(F)c3)c3cnn(C)c3)cc2n1 [I-15, 2-((S)-2-hydroxy-1-methyl-ethylamino)-quinazoline-7-carboxylic acid [(S)-(4-chloro-3-fluoro-phenyl)-(1-methyl-1H-pyrazol-4-yl)-methyl]-amide] |  | 1.2 nM |
